# Laboratory results: PubChem BioAssay AID1381 (University of Pittsburgh Molecular Library Screening Center, 2008)
# The entries are a selection whose mix differs from that of the whole data set. The source made the active and inactive calls.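 The calls were made as follows: active = plate z-score of nuclear minus cytoplasmic receptor signal below a set negative limit, without overly bright fluorescence or cell loss (cut at about -3.5 in these data, passing the limit was not always enough); inactive = the rest, inconclusive results apart.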
# Assay: inhibitors of GR-EGFP nuclear translocation, primary screen, dynein cargo transport inhibitor project, imaging, high-content, 3617.4 mouse cells (AID 1381)
# Conditions: active compounds read low, stimulated with dexamethasone, 1 µM
smiles,measurement,setting,value
COc1ccc(OP(C)(=O)Nc2cccc(F)c2)cc1 (stereo unspecified),z-score,at 20 µM unless noted,inactive: -0.88
Cc1cc(C)cc(OP(C)(N)=O)c1 (stereo unspecified),z-score,at 20 µM unless noted,inactive: 1.17
O=[As](O)(c1ccc(O)cc1)c1ccccc1O,z-score,at 20 µM unless noted,inactive: 1.17
C[As](=O)(O)c1cccc(C(=O)O)c1,z-score,at 20 µM unless noted,inactive: 1.78
CC(C)(C)c1ccc(OP(C)(=O)Nc2ccc(SC(F)(F)F)cc2)cc1 (stereo unspecified),z-score,at 20 µM unless noted,inactive: -1.24
Cc1ccc(OP(=O)(Nc2ccc([N+](=O)[O-])cn2)Oc2ccc(C)cc2)cc1,z-score,at 20 µM unless noted,inactive: -0.257
Cc1cccc(C)c1OP(C)(N)=O (stereo unspecified),z-score,at 20 µM unless noted,inactive: 1.7
Cc1ccc2nc3c(c(C)c2c1)CC(C(Cl)Cl)S3 (stereo unspecified),z-score,at 20 µM unless noted,inactive: 0.454
O=[N+]([O-])c1ccc2c(c1)C=Nc1ccccc1O2,z-score,at 20 µM unless noted,inactive: -0.827
COc1ccc(N/C(=N/P(=O)(N2CCOCC2)N2CCOCC2)N2CCOCC2)cc1,z-score,at 20 µM unless noted,inactive: 0.3
Cc1c2c(nc3ccccc13)SC(C(Cl)Cl)C2 (stereo unspecified),z-score,at 20 µM unless noted,inactive: -1.2
O=C(OC1CN2CCC1CC2)C12CC3CC(CC(C3)C1)C2 (stereo unspecified),z-score,at 20 µM unless noted,inactive: 0.228
Cc1cc(=O)[nH]c(N[N+](=O)[O-])n1,z-score,at 20 µM unless noted,inactive: 0.158
CCN(CC)CCCOC(=O)C(O)(c1ccccc1)c1ccccc1,z-score,at 20 µM unless noted,inactive: -0.895
COc1ccc2nc(NP(=O)(c3ccccc3)c3ccccc3)sc2c1,z-score,at 20 µM unless noted,inactive: -0.723
COc1cc(I)ccc1[As](=O)(O)O,z-score,at 20 µM unless noted,inactive: 0.112
CCOP(C)(=S)SCC(=O)NC(C)C(=O)O (stereo unspecified),z-score,at 20 µM unless noted,inactive: 0.504
CCOC(=O)c1ccc(NP(C)(=O)Oc2ccc(OC)cc2)cc1 (stereo unspecified),z-score,at 20 µM unless noted,inactive: -0.188
CCOC(=O)c1ccc(NC(=O)C(C)(CCl)SC)cc1 (stereo unspecified),z-score,at 20 µM unless noted,inactive: -0.476
CCC(C)N(CC(C)C)C(=S)SC(NC(C)=O)C(Cl)(Cl)Cl (stereo unspecified),z-score,at 20 µM unless noted,inactive: -0.201 [at 50 µM]
CP(=O)(Nc1ccccn1)Oc1ccc(Cl)cc1 (stereo unspecified),z-score,at 20 µM unless noted,inactive: 0.325 [at 50 µM]
CP(=O)(Nc1ccc(SC(F)(F)F)cc1)Oc1ccc(Cl)cc1 (stereo unspecified),z-score,at 20 µM unless noted,inactive: -0.192
Cc1cccc(C)c1OP(C)(=O)Nc1ccc(SC(F)(F)F)cc1 (stereo unspecified),z-score,at 20 µM unless noted,inactive: 1.32
COP1(=S)c2c(C)nn(CCC#N)c2N=C(c2ccc(F)cc2)N1C (stereo unspecified),z-score,at 20 µM unless noted,inactive: 1.01 [at 50 µM]
CP(=O)(Oc1ccccc1)OC(c1ccccc1)C(F)(F)F (stereo unspecified),z-score,at 20 µM unless noted,inactive: 0.887
CCc1ccc(OP(C)(=O)N2CCN(c3ccc([N+](=O)[O-])cc3)CC2)cc1 (stereo unspecified),z-score,at 20 µM unless noted,inactive: -1.16
CP(=O)(NC(=O)Nc1ccccc1)Oc1ccccc1 (stereo unspecified),z-score,at 20 µM unless noted,inactive: -1.27
O=C(COc1ccccc1)OC1CN2CCC1CC2 (stereo unspecified),z-score,at 20 µM unless noted,inactive: -0.682
Cc1cc(C)cc(OP(C)(=O)Nc2ccc(SC(F)(F)F)cc2)c1 (stereo unspecified),z-score,at 20 µM unless noted,inactive: 1.91
CP(=S)(Nn1cnnc1)Oc1ccccc1 (stereo unspecified),z-score,at 20 µM unless noted,inactive: -0.281 [at 50 µM]
CCOC(=O)Nc1cccc([As](=O)(O)O)c1,z-score,at 20 µM unless noted,inactive: 0.723
Cc1cc(SC(NC=O)C(Cl)(Cl)Cl)ncn1 (stereo unspecified),z-score,at 20 µM unless noted,inactive: -0.0407
O=P(Nc1ccccn1)(c1cccc2ccccc12)c1cccc2ccccc12,z-score,at 20 µM unless noted,inactive: 2
COc1ccccc1OP(C)(=O)Nc1ccccc1 (stereo unspecified),z-score,at 20 µM unless noted,inactive: 0.173
CP(=O)(Nc1ccccc1Br)Oc1ccccc1 (stereo unspecified),z-score,at 20 µM unless noted,inactive: 0.433
O=[N+]([O-])c1ccc(Nc2ccc(Oc3ccc([N+](=O)[O-])cc3[N+](=O)[O-])cc2)c([N+](=O)[O-])c1,z-score,at 20 µM unless noted,inactive: -2.15
CCOC(=O)Nc1ccc([As](=O)(O)O)c(O)c1,z-score,at 20 µM unless noted,inactive: 0.0429
Cc1cc(SC(NC(=O)c2ccccc2)C(Cl)(Cl)Cl)nc(C(C)C)n1 (stereo unspecified),z-score,at 20 µM unless noted,inactive: -0.864
O=[N+]([O-])c1ncn(CCn2ncnc2[N+](=O)[O-])n1,z-score,at 20 µM unless noted,inactive: 0.0493
CC(C)(C)C(=O)NC(Sc1ccncn1)C(Cl)(Cl)Cl (stereo unspecified),z-score,at 20 µM unless noted,inactive: -1.25
O=C(O)CNc1ccc([As](=O)(O)O)cc1,z-score,at 20 µM unless noted,inactive: -0.618
O=[N+]([O-])c1cccc(NC2=NCC(CBr)S2)c1 (stereo unspecified),z-score,at 20 µM unless noted,inactive: 0.546
CP(=O)(OC12CC3CC(CC(C3)C1)C2)OC12CC3CC(CC(C3)C1)C2,z-score,at 20 µM unless noted,inactive: -0.0317
CCOC(=O)c1ccc(NP(C)(=O)Oc2ccc(Cl)cc2)cc1 (stereo unspecified),z-score,at 20 µM unless noted,inactive: -0.596
O=C(Nc1cc([As](=O)(O)O)ccc1O)c1ccccc1,z-score,at 20 µM unless noted,inactive: -0.952
CCN(/C(=N/P(=O)(N1CCOCC1)N1CCOCC1)N1CCOCC1)c1ccc(OC)cc1,z-score,at 20 µM unless noted,inactive: 2.13
CP(=O)(Nc1ccc(Cl)cc1)Oc1ccc(F)cc1 (stereo unspecified),z-score,at 20 µM unless noted,inactive: -1.08 [at 50 µM]
Nc1ccc([As](=O)(O)c2ccc(N)cc2)cc1,z-score,at 20 µM unless noted,inactive: 1.04
CC(C)(C)c1ccc(OP(C)(=O)O)cc1,z-score,at 20 µM unless noted,inactive: 0.0111 [at 50 µM]
COc1ccccc1OP(C)(=O)Nc1ccccc1Br (stereo unspecified),z-score,at 20 µM unless noted,inactive: 0.134
C[N+]1=C2C=CC=CC=C2SC12C([N+](=O)[O-])=CC([N+](=O)[O-])=C[C-]2[N+](=O)[O-] (stereo unspecified),z-score,at 20 µM unless noted,inactive: -2.04
CC1CCN(C(=O)Oc2c(Cl)cc(Cl)c3cccnc23)CC1,z-score,at 20 µM unless noted,inactive: -0.318 [at 50 µM]
CC(C)=N/N=C(\N)N[N+](=O)[O-],z-score,at 20 µM unless noted,inactive: 0.512
CN(C)C(=O)c1c([N+](=O)[O-])cc([N+](=O)[O-])cc1[N+](=O)[O-],z-score,at 20 µM unless noted,inactive: -1.56
CN(C)C(=O)OCCc1n(C)cc[n+]1C,z-score,at 20 µM unless noted,inactive: -0.34
CCN(CC)CC(O)COC(=O)C(O)(c1ccccc1)C1CCCCC1 (stereo unspecified),z-score,at 20 µM unless noted,inactive: -0.429
COc1ccc(C2=NCC(CBr)S2)cc1 (stereo unspecified),z-score,at 20 µM unless noted,inactive: 0.877
COc1ccc(OP(C)(=O)Nc2ccc(Br)cc2)cc1 (stereo unspecified),z-score,at 20 µM unless noted,inactive: 1.81
Cc1ccc(NP(=O)(Oc2ccccc2)Oc2ccccc2)nc1,z-score,at 20 µM unless noted,inactive: -1.41
CP(=O)(Oc1ccccc1)N1CCOC1=O (stereo unspecified),z-score,at 20 µM unless noted,inactive: -0.933
O=[N+]([O-])c1cc([N+](=O)[O-])c(CCNc2ccccc2)c([N+](=O)[O-])c1,z-score,at 20 µM unless noted,inactive: 0.0369
CCc1nc2c(n1)c1c(non1O)c1c2no[n+]1[O-],z-score,at 20 µM unless noted,inactive: -3.23
CCc1ccc(OP(C)(=O)Nc2cccnc2)cc1 (stereo unspecified),z-score,at 20 µM unless noted,inactive: -0.111
COc1ccccc1OP(C)(=O)Nc1c(C)n(C)n(-c2ccccc2)c1=O (stereo unspecified),z-score,at 20 µM unless noted,inactive: -0.758
CC(=O)N1C2C3N(C(C)=O)C1C1N(C(C)=O)C(C(N1C(C)=O)N3C(C)=O)N2C(C)=O,z-score,at 20 µM unless noted,inactive: 0.488
O=[N+]([O-])c1cccc2n[nH]nc12,z-score,at 20 µM unless noted,inactive: 0.684 [at 50 µM]
O=C(OCCCN1CCCC1)C(O)(c1ccccc1)C1CCCCC1 (stereo unspecified),z-score,at 20 µM unless noted,inactive: -0.575
Oc1ccccc1CNc1ccccn1,z-score,at 20 µM unless noted,inactive: -0.212
O=C(NC(Sc1ccncn1)C(Cl)(Cl)Cl)c1ccccc1 (stereo unspecified),z-score,at 20 µM unless noted,inactive: 0.168
O=[N+]([O-])c1cc([N+](=O)[O-])c(Nc2ccccn2)c([N+](=O)[O-])c1,z-score,at 20 µM unless noted,inactive: -1.01
CC(C)CC(=O)NC(Sc1ccc(Cl)cc1)C(Cl)(Cl)Cl (stereo unspecified),z-score,at 20 µM unless noted,inactive: -0.324
Nc1cc(N)c2nonc2c1[N+](=O)[O-],z-score,at 20 µM unless noted,inactive: 0.257
Cc1c(NP(C)(=O)Oc2ccc(C(C)C)cc2)c(=O)n(-c2ccccc2)n1C (stereo unspecified),z-score,at 20 µM unless noted,inactive: 1.16 [at 50 µM]
CCc1ccc(OP(C)(=O)O)cc1,z-score,at 20 µM unless noted,inactive: -0.0781 [at 50 µM]
CP(=O)(Nc1ccccn1)Oc1ccccc1 (stereo unspecified),z-score,at 20 µM unless noted,inactive: 0.153 [at 50 µM]
COc1ccccc1OP(C)(=O)Nc1ccc(C)cc1C (stereo unspecified),z-score,at 20 µM unless noted,inactive: 0.61
COc1ccccc1OP(C)(=O)Nc1ccc(Br)cc1 (stereo unspecified),z-score,at 20 µM unless noted,inactive: -0.697
Cc1ccc(N/C(=N/P(=O)(N2CCOCC2)N2CCOCC2)N2CCOCC2)cc1,z-score,at 20 µM unless noted,inactive: 0.755
NC(=O)c1cc([N+](=O)[O-])cc([N+](=O)[O-])c1N,z-score,at 20 µM unless noted,inactive: -0.418
CN(C)CCOC(=O)C(O)(c1ccccc1)C1CCCC1 (stereo unspecified),z-score,at 20 µM unless noted,inactive: 0.181 [at 50 µM]
Clc1ccc(Cl)c(NC2=NCC(CBr)S2)c1 (stereo unspecified),z-score,at 20 µM unless noted,inactive: 0.0844
CN1CCCC(OC(=O)C(c2ccccc2)c2ccccc2)C1 (stereo unspecified),z-score,at 20 µM unless noted,inactive: -0.0656 [at 50 µM]
COc1ccc(OP(C)(=O)Nc2ccccn2)cc1 (stereo unspecified),z-score,at 20 µM unless noted,inactive: 0.405
COc1ccccc1OP(=O)(Nc1ccc(C)cn1)Oc1ccccc1OC,z-score,at 20 µM unless noted,inactive: 2.28
Cc1ccc(OP(=O)(Nc2nccs2)Oc2ccc(C)cc2)cc1,z-score,at 20 µM unless noted,inactive: -0.354
Cc1nc2ccc3ccccc3c2o1.O=[N+]([O-])c1cc([N+](=O)[O-])c(O)c([N+](=O)[O-])c1,z-score,at 20 µM unless noted,inactive: -0.325
Nc1cccc2ccc([As](=O)(O)O)cc12,z-score,at 20 µM unless noted,inactive: 0.41
CP(=O)(OCCOc1ccccc1)OCCOc1ccccc1,z-score,at 20 µM unless noted,inactive: 0.104
CP(=O)(Nc1ccc(Cl)cc1Cl)Oc1ccccc1 (stereo unspecified),z-score,at 20 µM unless noted,inactive: -0.516
CCN(N=Nc1nonc1N)c1nonc1N,z-score,at 20 µM unless noted,inactive: -0.01
Cc1cc(C)cc(OP(C)(=O)Nc2cccc(C(F)(F)F)c2)c1 (stereo unspecified),z-score,at 20 µM unless noted,inactive: -0.251
O=P(Nc1nc2ccc(Cl)cc2s1)(c1ccccc1)c1ccccc1,z-score,at 20 µM unless noted,inactive: -0.412
O=C(O)c1ccccc1[As](=O)(O)O,z-score,at 20 µM unless noted,inactive: 0.887
CC(=O)Nc1ccc([As](=O)(O)O)cc1,z-score,at 20 µM unless noted,inactive: -0.193
COc1ccc(OP(C)(=O)Nc2ccccc2Br)cc1 (stereo unspecified),z-score,at 20 µM unless noted,inactive: 0.977
CCOP(=O)(Nc1ccccc1)OCC,z-score,at 20 µM,inactive: 2.21
same,z-score,at 50 µM,inactive: -0.769
Cc1cc(SC(NC(=O)c2ccc(F)cc2)C(Cl)(Cl)Cl)ncn1 (stereo unspecified),z-score,at 20 µM unless noted,inactive: -0.0394
Cc1ccc(NP(=O)(Oc2ccccc2F)Oc2ccccc2F)nc1,z-score,at 20 µM unless noted,inactive: 0.447
COc1ccccc1OP(C)(=O)Nc1ccc(C)c(C)c1 (stereo unspecified),z-score,at 20 µM unless noted,inactive: -0.163
CCC(=O)N1C2C3N(C(=O)CC)C1C1N(C(=O)CC)C(C(N1C(=O)CC)N3C(=O)CC)N2C(=O)CC,z-score,at 20 µM unless noted,inactive: -1.08
